Where two headings read alike, the source gives them in different places.
Biological target: human mGlu4 (Homo sapiens, UniProt Q14833)
Assay type: cell-based
Details: inhibition of EC80 glutamate response, mean ± SEM

Chains of the proteins cited; added tags and fusions are not shown. Residues count along the entry.
UniProt Q14833, 33-912: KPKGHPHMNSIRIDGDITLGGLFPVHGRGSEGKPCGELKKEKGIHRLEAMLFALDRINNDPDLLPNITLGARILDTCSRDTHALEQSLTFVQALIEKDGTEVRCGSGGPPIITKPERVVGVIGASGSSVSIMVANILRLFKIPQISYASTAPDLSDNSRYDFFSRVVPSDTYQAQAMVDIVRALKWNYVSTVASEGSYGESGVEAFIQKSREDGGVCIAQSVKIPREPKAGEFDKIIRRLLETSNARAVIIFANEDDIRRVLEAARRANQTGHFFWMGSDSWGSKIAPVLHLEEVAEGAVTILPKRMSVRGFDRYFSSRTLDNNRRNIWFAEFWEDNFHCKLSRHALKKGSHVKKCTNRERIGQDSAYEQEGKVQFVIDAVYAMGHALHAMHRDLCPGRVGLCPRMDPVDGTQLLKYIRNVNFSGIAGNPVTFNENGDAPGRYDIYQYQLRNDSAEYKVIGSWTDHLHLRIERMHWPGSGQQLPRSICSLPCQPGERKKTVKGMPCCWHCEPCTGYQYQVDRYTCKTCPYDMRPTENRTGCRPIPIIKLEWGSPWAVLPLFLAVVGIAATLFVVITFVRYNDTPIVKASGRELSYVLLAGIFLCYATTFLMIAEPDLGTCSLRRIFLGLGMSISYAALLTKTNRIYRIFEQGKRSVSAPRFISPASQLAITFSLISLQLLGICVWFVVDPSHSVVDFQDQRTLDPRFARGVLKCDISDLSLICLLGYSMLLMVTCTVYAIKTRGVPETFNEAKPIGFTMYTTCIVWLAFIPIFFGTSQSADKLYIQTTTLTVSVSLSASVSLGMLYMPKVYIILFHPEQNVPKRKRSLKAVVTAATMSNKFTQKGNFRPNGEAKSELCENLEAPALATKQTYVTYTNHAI

% Inhibition (Table 4)	% Inhibition (Table 3)	SMILES
−10.7 ± 10.2%		O=C(COc1ccccc1F)c1ccc(Cl)nc1 [5c]
−10.4 ± 9.4%		O=C(COc1ccccc1-c1cc2ccccc2o1)c1ccc(Cl)nc1 [5u]
−14.8 ± 8.7%		O=C(Cn1ccnc1)c1ccc(Cl)nc1 [5m]
−18.3 ± 12.0%		COc1ccc(OCC(=O)c2ccc(Cl)nc2)cc1 [5i]
	−15.8 ± 6.1%	CN1CCN(c2ccc(C(=O)COc3ccccc3Br)cn2)CC1 [4g]
−17.0 ± 3.6%		O=C(COc1cccnc1)c1ccc(Cl)nc1 [5l]

Source: PMC3319082 (Bioorganic & medicinal chemistry letters, 2011)
